## Yeast mating assay 1: variants of the scFv Ab-14

Target peptide (SARS-CoV-2 spike, HR2 region): PDVDLGDISGINAS

Ab-14 is the parent antibody, in scFv form: VH, then the linker GGGGSGGGGSGGGGS, then VL. The heavy chain is unchanged in all variants.
VH: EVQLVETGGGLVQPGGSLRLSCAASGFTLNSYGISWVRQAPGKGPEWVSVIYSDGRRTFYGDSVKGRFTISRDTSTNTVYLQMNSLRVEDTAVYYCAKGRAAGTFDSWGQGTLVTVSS
VL: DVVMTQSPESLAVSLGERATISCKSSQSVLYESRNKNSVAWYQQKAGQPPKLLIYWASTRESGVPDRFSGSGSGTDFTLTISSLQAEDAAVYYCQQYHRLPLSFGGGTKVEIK

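The starting antibody came from a phage panning campaign against this peptide. The library (AAYL50) carries one to three amino acid substitutions per variant, with no insertions or deletions. In AlphaSeq, yeast of one mating type display the scFv and yeast of the other type display the target. Pairs that bind mate more often; barcode pairs of the diploids are counted by sequencing. Read counts were normalised to the haploid input and turned into Kd by a linear fit to BCL2-family pairs of known affinity, for each replicate. Each pool was mated in three replicate cultures.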

Changes read parent residue, position, new residue, counted from the first residue of the VL shown.
Values are apparent Kd, the geometric mean of the replicates that gave a signal; lower means stronger binding.
Where no diploid with the target was found in any replicate, the entry reads "not detected": below detection, most likely a poor binder, though not proof of it.

changes	apparent Kd	seen in
Y31A/R34A/L100P	13 nM	3/3
V29R/R34W/S58G	14 µM	2/3
K24G/S26I/Q27M	4.5 µM	1/3
A57H/T59F/L100Q	not detected	0/3
S25D/Y31E	4.5 nM	3/3
K24W/S33Q	86 nM	3/3
S26E/K36G/S38N	2.8 nM	3/3
S28G/R99F/P101S	not detected	0/3
L30C/T59S	25 nM	3/3
K36G/A40M/Q96N	170 µM	1/3
K24C/A57R/S62T	not detected	0/3
Y31D/W56N/Q96M	not detected	0/3
K24N/S26G/V29L	9.3 nM	3/3
S25N/Q27A/N35R	610 µM	1/3
S28M/S62K/S103F	840 nM	3/3
K36S/E61W/Q95S	290 nM	1/3
S26R/Q27V/E32T	21 nM	3/3
S33L/S38D/Q95W	3.1 µM	1/3
A40T/W56V/Y97L	1.8 µM	2/3
A40H/W56S	not detected	0/3
W56H/S58L/R99F	93 nM	3/3
R34Q/W56K/A57T	1.3 nM	3/3
S58A/Q95H/H98M	13 µM	2/3
H98W/L100W	not detected	0/3
Q27R/L30C/S38Q	1.1 µM	3/3
S38W/A57H/H98I	23 µM	1/3
R60Q/L100G	33 µM	1/3
E32H/K36V/N37D	34 nM	3/3
S25F/E61S	1.1 nM	3/3
Q27A/L30N/E61D	11 nM	3/3
S25V/S62P/Q96V	9.5 nM	3/3
R60V/H98A/S103P	9.8 µM	1/3
K36D/N37A	8.2 nM	3/3
Q27D/S33G/R34T	17 nM	3/3
E32H/R60F	not detected	0/3
S38V/A40G/A57Q	29 µM	2/3
S28D/E61T	120 nM	3/3
S28C/E32D/N37E	2.0 µM	1/3
E32P/S38P/R60I	1.5 µM	1/3
S25L/L30W/V39I	32 µM	3/3
S25Q/S26A/V39I	3.6 nM	3/3
S33E/N35S/S62R	6.3 nM	3/3
L30F/R34Y/R99N	9.5 nM	3/3
K24I/L30D/S33I	38 nM	3/3
K24H/S26D/S33T	16 nM	3/3
N35G/E61P/P101Y	60 µM	1/3

Repeated from above, the 7 best binders with a signal in all replicates:

{"changes": "S25F/E61S", "apparent Kd": "1.1 nM", "seen in": "3/3"}
{"changes": "R34Q/W56K/A57T", "apparent Kd": "1.3 nM", "seen in": "3/3"}
{"changes": "S26E/K36G/S38N", "apparent Kd": "2.8 nM", "seen in": "3/3"}
{"changes": "S25Q/S26A/V39I", "apparent Kd": "3.6 nM", "seen in": "3/3"}
{"changes": "S25D/Y31E", "apparent Kd": "4.5 nM", "seen in": "3/3"}
{"changes": "S33E/N35S/S62R", "apparent Kd": "6.3 nM", "seen in": "3/3"}
{"changes": "K36D/N37A", "apparent Kd": "8.2 nM", "seen in": "3/3"}

Background: pairings of library AAYL50 with three empty control strains gave a value in 18% of cases (median 15 µM, 5th percentile 970 nM). Values in that range, when seen in few replicates, are hard to tell from nonspecific mating.
Parent in this assay: reference entry 4.4 nM, copy in this library 48 nM.

The measurements come from Engelhart et al. 2022 (doi:10.1038/s41597-022-01779-4) through the FLAb antibody collection.